For one molecule, Ki results are on record in BindingDB's records for PubMed 2885412 (Unwersity of Misscuri, 1987).

“And” between values parts separate entries of the source, which are not always exact repeats. Equal values may be shown once.

The Ki is the equilibrium dissociation constant of an inhibitor or competing ligand from its target. A high value points to lower affinity.

The assay has as its target T1, Alpha-1A adrenergic receptor (Rattus norvegicus, UniProt P43140).
T1 sequence (P43140 whole entry): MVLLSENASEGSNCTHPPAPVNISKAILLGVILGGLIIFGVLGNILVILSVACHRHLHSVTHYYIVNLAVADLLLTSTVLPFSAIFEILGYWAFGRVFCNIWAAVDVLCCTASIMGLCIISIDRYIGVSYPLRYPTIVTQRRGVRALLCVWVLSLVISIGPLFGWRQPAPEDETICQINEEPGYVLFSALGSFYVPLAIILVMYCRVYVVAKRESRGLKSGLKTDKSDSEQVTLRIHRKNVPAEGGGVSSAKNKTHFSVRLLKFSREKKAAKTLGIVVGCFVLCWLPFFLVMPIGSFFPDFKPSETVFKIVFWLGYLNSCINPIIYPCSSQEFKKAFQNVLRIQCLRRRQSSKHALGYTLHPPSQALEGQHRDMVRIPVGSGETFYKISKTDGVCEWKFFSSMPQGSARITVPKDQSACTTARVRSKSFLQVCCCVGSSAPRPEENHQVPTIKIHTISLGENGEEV

Regarding `COC(=O)[C@@H]1[C@H]2C[C@H]3c4[nH]c5ccccc5c4CCN3C[C@@H]2CC[C@@H]1O` [yohimbic acid methyl ester], the Ki was 64 nM and 36 nM.
